The assay in a line: Activation of human platelet aggregation (gel-filtered platelets) induced by alpha thrombin.

The results in this text go back to BindingDB's records for doi:10.1016/s0960-894x(99)00197-3 (The R. W. Johnson Pharmaceutical Research Institute, 1999).

The compound `N=C(N)NCCC[C@H](NC(=O)[C@H](CC1CCCCC1)NC(=O)c1nnc(NC(=O)C(F)=Cc2ccccc2)[nH]1)C(=O)N[C@@H](Cc1ccccc1)C(N)=O` [5-((Z)-2-Fluoro-3-phenyl-acryloylamino)-1H-[1,2,4]triazole-3-carboxylic acid {(S)-1-[(S)-1-((S)-1-carbamoyl-2-phenyl-ethylcarbamoyl)-4-guanidino-butylcarbamoyl]-2-cyclohexyl-ethyl}-amide] returned a concentration giving a half-maximal response (EC50) of 1700 nM. That is a single-digit micromolar value.
